Protein sequences, listed by entry. Tags and fused reporters are not part of them.
UniProt P35372, whole entry: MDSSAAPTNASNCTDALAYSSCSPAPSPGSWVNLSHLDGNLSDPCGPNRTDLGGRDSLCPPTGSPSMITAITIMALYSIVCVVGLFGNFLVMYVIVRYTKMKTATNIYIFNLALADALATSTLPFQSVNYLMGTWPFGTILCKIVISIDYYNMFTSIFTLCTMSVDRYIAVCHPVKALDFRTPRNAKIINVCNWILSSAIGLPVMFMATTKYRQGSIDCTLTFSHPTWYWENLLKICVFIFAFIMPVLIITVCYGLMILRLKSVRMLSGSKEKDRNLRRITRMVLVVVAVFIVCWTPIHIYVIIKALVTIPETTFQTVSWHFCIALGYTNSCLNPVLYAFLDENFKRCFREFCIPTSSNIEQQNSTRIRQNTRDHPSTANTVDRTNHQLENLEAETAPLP
UniProt P41146, whole entry: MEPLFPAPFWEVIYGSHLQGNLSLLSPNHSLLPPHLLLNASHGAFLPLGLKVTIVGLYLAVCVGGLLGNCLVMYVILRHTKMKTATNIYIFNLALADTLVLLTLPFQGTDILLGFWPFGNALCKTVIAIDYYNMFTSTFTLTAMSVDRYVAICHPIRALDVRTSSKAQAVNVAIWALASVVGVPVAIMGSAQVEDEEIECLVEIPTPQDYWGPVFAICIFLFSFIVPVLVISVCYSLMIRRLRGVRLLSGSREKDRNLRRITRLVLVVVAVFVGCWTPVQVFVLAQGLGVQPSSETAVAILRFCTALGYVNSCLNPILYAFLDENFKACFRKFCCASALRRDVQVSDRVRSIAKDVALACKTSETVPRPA

In patent US7241770B2 (priority 2003, dated 2007):

Legend:
human μ-opiate receptor = human μ-opiate receptor (Homo sapiens, UniProt P35372); test: Affinity for μ-opiate receptors, [3H]-DAMGO receptor binding assay on CHO cell membranes; conditions: human μ-opiate receptor in CHO membranes
human ORL1 receptor = human ORL1 receptor (Homo sapiens, UniProt P41146); test: Affinity for human ORL1 receptors, [3H]-nociceptin receptor binding assay on CHO cell membranes; conditions: human ORL1 receptor in CHO membranes

What does the source list for `CC1(C)C2CCC(CCN3CCC4(CC3)C(=O)NCN4c3ccccc3)C1C2` (centres unmarked) [Example 1, 8-[2-(6,6-Dimethyl-bicyclo[3.1.1]hept-2-yl)-ethyl]-1-phenyl-1,3,8-triaza-spiro[4.5]decan-4-one]?
affinity μ-opiate pKi (human μ-opiate receptor): 7.7; affinity ORL1 pKi (human ORL1 receptor): 9.3
